Assay results published in ChEMBL document CHEMBL4257542, “Design, synthesis, and evaluation of bitopic arylpiperazine-phthalimides as selective dopamine D3 receptor agonists” (Medchemcomm, 2018).

Amino acid sequences for entries named in this document (tags omitted).
UniProt P14416, whole entry: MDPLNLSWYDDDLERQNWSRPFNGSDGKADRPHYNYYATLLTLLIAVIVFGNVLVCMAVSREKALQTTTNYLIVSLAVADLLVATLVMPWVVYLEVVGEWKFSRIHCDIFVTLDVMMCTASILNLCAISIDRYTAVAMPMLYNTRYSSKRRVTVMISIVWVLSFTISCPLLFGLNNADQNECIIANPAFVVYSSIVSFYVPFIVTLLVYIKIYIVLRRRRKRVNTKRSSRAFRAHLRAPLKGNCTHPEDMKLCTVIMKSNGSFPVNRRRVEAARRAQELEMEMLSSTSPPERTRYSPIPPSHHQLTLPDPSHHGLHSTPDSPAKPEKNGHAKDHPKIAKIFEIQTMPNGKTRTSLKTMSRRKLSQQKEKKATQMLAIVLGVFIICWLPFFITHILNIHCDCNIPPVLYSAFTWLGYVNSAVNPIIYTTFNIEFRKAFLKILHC

Target: D(2) dopamine receptor (Homo sapiens, UniProt P14416)
Assay: Displacement of [3H]-sulpiride from human D2 receptor expressed in HEK293 cells at 100 nM after 150 mins by liquid scintillation counting method relative to control
Type: cell-based

inhibition: 29.6%
SMILES: O=C(NCCCCN1CCN(c2cccc(Cl)c2Cl)CC1)c1cc2ccccc2[nH]1
